Experimental melting point values from OPERA 2.9

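These are experimental values that the OPERA curators gathered from public databases to train and test their QSAR models. One number stands for a compound and property, with no spread given. Conditions of the individual experiments are not part of the data. A value may pool stereoisomers or salt forms, and the file does not say which form was measured. Some upstream entries may be estimates or bounds without being marked so.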

The melting point is given in degrees Celsius.

mp (°C) | structure (SMILES)
191 | COc1ccc2cc(C(=O)O)[nH]c2c1
219 | CC1CCc2[nH]c3ccc(C(=O)O)cc3c2C1 (stereo unspecified)
141 | Cc1ccc(C)c(NC(N)=S)c1
220 | NC(CC(=O)O)c1cccs1 (stereo unspecified)
185 | Brc1cnc2ncnn2c1
184 | Nc1nn2cc(-c3ccccc3)nc2s1
91 | O=C(C1=CNCCC1)c1ccccc1
173 | Nc1nc2cc(Br)ccc2o1
93 | COc1cc(Br)c(S(=O)(=O)Cl)cc1OC
208 | O=C(O)c1ccc(NS(=O)(=O)c2ccc(Cl)cc2)cc1
100 | CCc1cccc2c(C=O)c[nH]c12
79 | COc1ccccc1CCNC(=O)CCl
228.5 | CC(c1cc(-c2ccccc2)c(O)c(-c2ccccc2)c1)(c1cc(-c2ccccc2)c(O)c(-c2ccccc2)c1)C(F)(F)F
189 | NC(=O)c1ccc(S(=O)(=O)Cl)cc1
87 | CCOC(=O)c1nn(-c2ccccc2)cc1O
110 | C=CCn1c(=S)[nH]c2ccccc21
70 | O=C(Nc1ccc(Cl)cc1)OCC(F)(F)F
92.5 | COc1cc(C)cc(OC)c1C=O
202 | COc1ccc2c(c1)OCC(C(=O)O)=C2
-6.21 | O=Cc1cccc(C(F)(F)F)c1
183 | COc1ccccc1Nc1n[nH]c(=S)s1
314 | Nc1c(C(=O)O)cc(Br)c2c1C(=O)c1ccccc1C2=O
115 | NC(=O)NC1CC1
123 | COc1ccc(C(C)=O)cc1CC(=O)O
107 | O=C(O)CCCSc1ccc(Cl)cc1
125.3 | CCCCCCCCCCCCCCCCCC(=O)N[C@@H](CO)[C@H](O)[C@H](O)CCCCCCCCCCCCCC
176.9 | O[C@@H]([C@H](O)[C@H](O)CBr)[C@H](O)CBr
95 | O=[N+]([O-])c1cc(CCl)c2c(c1)COCO2
150 | CCOc1ccc(NC(=O)CCl)cc1
157 | COc1cc(C(=O)O)cc(OC)c1OCc1ccccc1
201 | CC1(c2cccc(Cl)c2)NC(=O)NC1=O (stereo unspecified)

The first 2 entries again:

{"smiles": "COc1ccc2cc(C(=O)O)[nH]c2c1", "mp (°C)": "191"}
{"smiles": "CC1CCc2[nH]c3ccc(C(=O)O)cc3c2C1", "stereo": "stereo unspecified", "mp (°C)": "219"}

From the experimental data distributed with OPERA 2.9.